This is an account of results in PubChem BioAssay AID1259389 (Center for Chemical Genomics, University of Michigan, 2018).

The list shows a part of the results, in another mix than the full data. Calls of active or inactive are those of the source. Rule for the calls: active = z-score of 3 or more in at least 2 runs; inactive = the rest.

The assay can be described thus: TAR RNA-Tat peptide displacers, HIV-1, primary screen, biochemical, FRET, FAM/TAMRA-labeled Tat (AID 1259389). Note: test concentration not given here. To be noted: HIV-1 TAR RNA, Tat peptide displacement FRET; hits give high values.
For `CN(CCCl)CCCl`, the z-score is inactive: 4.77.
